{"sequences": {"note": "The chains behind the UniProt entries cited, without tags or fusion partners.", "UniProt P19643, whole entry": "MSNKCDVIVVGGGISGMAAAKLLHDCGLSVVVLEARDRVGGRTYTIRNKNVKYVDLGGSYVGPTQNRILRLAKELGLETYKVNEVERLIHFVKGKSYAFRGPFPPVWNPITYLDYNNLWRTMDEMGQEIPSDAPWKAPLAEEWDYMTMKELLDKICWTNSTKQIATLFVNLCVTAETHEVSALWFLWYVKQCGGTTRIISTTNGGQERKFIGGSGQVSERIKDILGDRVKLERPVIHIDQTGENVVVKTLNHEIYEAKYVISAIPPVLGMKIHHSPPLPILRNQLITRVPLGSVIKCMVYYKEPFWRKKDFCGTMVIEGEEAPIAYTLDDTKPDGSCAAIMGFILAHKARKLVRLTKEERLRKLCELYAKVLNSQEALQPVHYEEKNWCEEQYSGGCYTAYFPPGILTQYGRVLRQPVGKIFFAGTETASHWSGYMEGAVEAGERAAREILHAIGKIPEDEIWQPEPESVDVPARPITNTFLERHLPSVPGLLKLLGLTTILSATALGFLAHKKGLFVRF"}, "source": "patent EP0892802B1", "about": "“SPIRO(CYCLOPENT(B)INDOLE-PIPERIDINES) AND N-PHENYL-HYDRAZON INTERMEDIATES FOR THEIR PREPARATION, BOTH BEING ACETYLCHOLINESTERASE AND MAO INHIBITORS” (priority 1996, dated 1997)", "molecular_target": "T1, monoamine oxidase-B (Rattus norvegicus, UniProt P19643)", "T1 construct": "serves as the tissue source for mitochondrial monoamine oxidase; from tissue; host or cells: rat whole brain minus cerebellum, P2 (crude mitochondrial) pellet", "test": "in vitro inhibition of monoamine oxidase assay (modified Kindt), MAO-B", "format": "biochemical, Male Wistar rats", "conditions": "rat whole brain minus cerebellum, mitochondrial P2 pellet; substrate [14C]-β-phenethylamine 200 µM; preincubated 15 minutes, incubated 30 minutes at 37°C; log-probit analysis", "description": "The spiro[cyclopent[b]indole-piperidines] of the present invention are also useful as agents for treating depression. […] In this assay, a modification of an assay described by M. V. Kindt, et al., Europ. J. Pharmacol. 146: 313-318 1988.\nThe following reagents are prepared: • 1. Phosphate buffer (0.5 M), pH 7.4; 134.4 g dibasic sodium phosphate heptahydrate q.s. to 1 liter in distilled water (A) 17.3 g monobasic sodium phosphate q.s. to 250 ml in distilled water (B) Adjust pH of A to 7.4 by slowly adding B (volumes as needed) Dilute 1:10 in distilled water (0.05 M phosphate buffer, pH 7.4) • 2. 0.25 M Sucrose (phosphate buffered): 21.4 g sucrose, q.s. to 250 ml with 0.05 M phosphate buffer • 3. Substrate for monoamine oxidase-A: • a. serotonin creatine sulphate (5-hydroxytryptamine) is obtained from Sigma Chemical Company. A 5 mM stock solution is made up in 0.01 N-hydrochloric acid. The solution is used to dilute the specific activity of the [^3H]-hydroxytryptamine. • b. […]\n• 10 µl 0.5 M phosphate buffer, pH 7.4 • 50 µl water or appropriate drug concentration • 400 µl tissue suspension Tubes are preincubated for 15 minutes at 37°C and the assay is started by adding 40 µl of combined substrate ([^3H]-5-hydroxytryptamine and [^14C]-β-phenethylamine) at 15 second intervals. […] Tissue blank values are determined by adding the acid before the radioactive substrate. […]"}
{"smiles": "COc1cc(Br)c2oc(C3CCNCC3)cc2c1", "note": "[brofaromine, reference compound]", "values": [{"measurement": "IC50", "value": 23.4, "unit": "µM"}]}
